System: Purine nucleoside phosphorylase
Experiment: Binding affinity against Purine Nucleoside Phosphorylase

O=P(O)(O)OC[C@H]1O[C@@H](n2cnc3cncnc32)[C@H](O)[C@@H]1O gave a Log Kd of -8.96.

Reference: ChEMBL document CHEMBL1135481, “SMall Molecule Growth 2001 (SMoG2001): an improved knowledge-based scoring function for protein-ligand interactions” (J Med Chem, 2002)
